Measured values published in PubChem BioAssay (NCI).
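Growth conditions: 96-well plates. Treatment: test compound, 48 hours, 5 concentrations. Analysis: linear interpolation between bracketing concentrations; unreached endpoints set to highest concentration. GI50 is the concentration that inhibits growth by half.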

Tests used:
Assay in all cases: NCI-60 cell line screen, 48 h; in the data active = GI50 below about 0.43 µM; inactive = the rest
EKVX NSCLC = test system: EKVX NSCLC
TK-10 renal = test system: TK-10 renal
OVCAR-3 ovarian = test system: OVCAR-3 ovarian
SK-OV-3 ovarian = test system: SK-OV-3 ovarian
SF-295 CNS = test system: SF-295 CNS
K-562 leukemia = test system: K-562 leukemia
UO-31 renal = test system: UO-31 renal
SW-620 colon = test system: SW-620 colon
A549 NSCLC = test system: A549 NSCLC
OVCAR-4 ovarian = test system: OVCAR-4 ovarian
MOLT-4 leukemia = test system: MOLT-4 leukemia
NCI/ADR-RES ovarian = test system: NCI/ADR-RES ovarian
IGROV1 ovarian = test system: IGROV1 ovarian
MCF7 breast = test system: MCF7 breast
OVCAR-5 ovarian = test system: OVCAR-5 ovarian
LOX IMVI melanoma = test system: LOX IMVI melanoma
HOP-92 NSCLC = test system: HOP-92 NSCLC
786-0 renal = test system: 786-0 renal
SN12C renal = test system: SN12C renal
HCC-2998 colon = test system: HCC-2998 colon
NCI-H23 lung = test system: NCI-H23 lung
COLO 205 colon = test system: COLO 205 colon
SK-MEL-28 melanoma = test system: SK-MEL-28 melanoma
U251 CNS = test system: U251 CNS
NCI-H522 lung = test system: NCI-H522 lung
A498 renal = test system: A498 renal
BT-549 breast = test system: BT-549 breast
UACC-62 melanoma = test system: UACC-62 melanoma
NCI-H322M lung = test system: NCI-H322M lung
SK-MEL-5 melanoma = test system: SK-MEL-5 melanoma
KM12 colon = test system: KM12 colon
CAKI-1 renal = test system: CAKI-1 renal
NCI-H226 lung = test system: NCI-H226 lung
MDA-MB-435 = test system: MDA-MB-435
ACHN renal = test system: ACHN renal
UACC-257 melanoma = test system: UACC-257 melanoma
RXF 393 renal = test system: RXF 393 renal
HCT-116 colon = test system: HCT-116 colon
MALME-3M melanoma = test system: MALME-3M melanoma
DU-145 prostate = test system: DU-145 prostate
MDA-MB-231 breast = test system: MDA-MB-231 breast
HCT-15 colon = test system: HCT-15 colon
HOP-62 NSCLC = test system: HOP-62 NSCLC
OVCAR-8 ovarian = test system: OVCAR-8 ovarian
HS 578T breast = test system: HS 578T breast
HT29 colon = test system: HT29 colon
PC-3 prostate = test system: PC-3 prostate
T-47D breast = test system: T-47D breast
CCRF-CEM leukemia = test system: CCRF-CEM leukemia
NCI-H460 lung = test system: NCI-H460 lung
SK-MEL-2 melanoma = test system: SK-MEL-2 melanoma
SNB-19 CNS = test system: SNB-19 CNS
HL-60(TB) leukemia = test system: HL-60(TB) leukemia
MDA-N = test system: MDA-N
SF-268 CNS = test system: SF-268 CNS
M14 melanoma = test system: M14 melanoma

Measured: GI50

CN(C)CCn1c(Cn2nnc3ccccc32)nc2cc(C(F)(F)F)ccc21
inactive: EKVX NSCLC 74.9 µM | TK-10 renal 53.9 µM | OVCAR-3 ovarian 76.6 µM | SK-OV-3 ovarian 25.8 µM | SF-295 CNS 29.2 µM | K-562 leukemia 25.3 µM | UO-31 renal 45.5 µM | SW-620 colon > 100 µM | A549 NSCLC 83 µM | OVCAR-4 ovarian 34.8 µM | MOLT-4 leukemia 20.5 µM | NCI/ADR-RES ovarian 51.8 µM | IGROV1 ovarian 41.6 µM | MCF7 breast 42.8 µM | OVCAR-5 ovarian > 100 µM | LOX IMVI melanoma 55.8 µM | HOP-92 NSCLC 21.8 µM | 786-0 renal 28.9 µM | SN12C renal 34.8 µM | HCC-2998 colon 15.9 µM | NCI-H23 lung 61.4 µM | COLO 205 colon 18.1 µM | SK-MEL-28 melanoma 33.2 µM | U251 CNS 59.9 µM | NCI-H522 lung 30.6 µM | A498 renal 24.5 µM | BT-549 breast 72.6 µM | UACC-62 melanoma 57.3 µM | NCI-H322M lung > 100 µM | SK-MEL-5 melanoma 36.2 µM | KM12 colon 57.7 µM | CAKI-1 renal > 100 µM | NCI-H226 lung 73.8 µM | MDA-MB-435 = 46.2 µM | ACHN renal 50.4 µM | UACC-257 melanoma 29.1 µM | RXF 393 renal 24.2 µM | HCT-116 colon 36.2 µM | MALME-3M melanoma 17.1 µM | DU-145 prostate > 100 µM | MDA-MB-231 breast 49.2 µM | HCT-15 colon 45.6 µM | HOP-62 NSCLC > 100 µM | OVCAR-8 ovarian 71.7 µM | HS 578T breast 62.1 µM | HT29 colon 36.7 µM | PC-3 prostate 53.9 µM | T-47D breast 21.8 µM | CCRF-CEM leukemia 17.8 µM | NCI-H460 lung 56.3 µM | SK-MEL-2 melanoma 58 µM | SNB-19 CNS > 100 µM | HL-60(TB) leukemia 19.9 µM | MDA-N 32 µM | SF-268 CNS 71.4 µM | M14 melanoma 17.6 µM
